Measurements: ChEMBL document CHEMBL6120995, “Orvinol-based opioid receptor antagonist fluorinated at C(20)-pharmacophore” (2025)

Tested on: Mus musculus
Test: Effect on tail-flick latency in male Swiss mouse administered subcutaneously and measured after 30 mins
Settings: route sc

With C=CCN1CC[C@]23c4c5ccc(O)c4O[C@H]2[C@@]2(O)CC[C@@]3(C[C@@H]2[C@](C)(O)C(F)(F)F)[C@H]1C5 the Activity was “inactive”.

The source made the active and inactive calls. The rule behind the calls is not given here.
